From patent US20130295185A1, “COMPOUNDS AND METHODS FOR INDUCING APOPTOSIS IN CANCER CELLS USING A BH3 ALPHA-HELICAL MIMETIC” (H. Lee Moffitt Cancer Center and Research Institute, Inc., priority 2011, published 2013) come the findings set out here.

By UniProt entry, the sequences of proteins in these tests, tags left out.
UniProt Q07820, whole entry: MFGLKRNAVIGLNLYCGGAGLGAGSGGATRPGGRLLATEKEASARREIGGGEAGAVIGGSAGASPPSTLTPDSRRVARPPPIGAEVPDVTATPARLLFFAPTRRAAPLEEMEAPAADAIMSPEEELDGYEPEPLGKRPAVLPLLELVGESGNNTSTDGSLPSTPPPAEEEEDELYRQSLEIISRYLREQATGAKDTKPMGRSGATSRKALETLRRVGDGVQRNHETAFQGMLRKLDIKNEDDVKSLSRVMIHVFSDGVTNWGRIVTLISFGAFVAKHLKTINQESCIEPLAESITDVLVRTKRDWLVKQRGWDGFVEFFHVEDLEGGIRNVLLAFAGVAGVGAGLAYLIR

One experiment relates to A549 cells. As to the kind of experiment: MTT cell viability, A549 cells. Conditions: A549, 72 h; tested form: diammonium salt (as drawn, CO2NH4). How it is done:
FIG. 5 is a series of images illustrating BH3-M6 induces apoptosis in a caspase-dependent manner. (A) BH3-M6 releases cytochrome c from mitochondria. Mitochondria from A549 cells were incubated at 37° C. with 0, 50 μM BH3-M6 or TPC for 60 min. Cytochrome c release was determined as described in Methods. B-D A549 cells were treated with the indicated BH3-M6 concentrations for up to 72 h and then processed for various assays as described in EXPERIMENTAL PROCEDURES. (B) BH3-M6 induces apoptosis after 48 h of exposure to BH3-M6, as shown by phase images of cells (left panel) or DAPI nuclear staining (right panel). The arrows point towards cells in the process of rounding. The images from phase and DAPI are from different experiments. […] (D) BH3-M6 decreases the viability of A549 cells in a dose-dependent manner as measured by MTT assay after 72 h treatment. […] Caspase-3/-7 activity was determined as described in EXPERIMENTAL PROCEDURES. […] Middle panel, PARP cleavage was measured by Western blotting. Lower panel, extent of apoptosis was measured by TUNEL assay.
Release of cytochrome c from isolated mitochondria was measured as described by Takahashi et al. (Takahashi, Y., Karbowski, M., Yamaguchi, H., Kazi, A., Wu, J., Sebti, S. M., Youle, R. J., and Wang, H. G. (2005) Mol Cell Biol 25, 9369-9382) Cell-free caspase-3/-7 activity and the extent of PARP cleavage was determined as described previously. […]

The target in experiment [1] is Mcl-1 binding to Bax and Bim (Homo sapiens, UniProt Q07820). As to the kind of experiment: GST pull-down, GST-Mcl-1 with Bax and Bim from cell lysates. The settings on record: HEK293T and A549 cell lysates; 0, 50, 100 μM BH3-M6 or 100 μM TPC; tested form: diammonium salt (as drawn, CO2NH4). The text has this:
FIG. 2 is a series of images illustrating that BH3-M6, but not TPC, inhibits the binding of anti-apoptotic proteins to pro-apoptotic proteins in vitro. (A) a series of graphs illustrating that BH3-M6 blocks the binding of Bak BH3 α-helix to Bcl-XL (left) or Bim BH3 α-helix to Mcl-1 (right) as measured by fluorescence polarization assay, black circles: BH3-M6, open triangles: TPC. (B) BH3-M6 inhibits the interaction of Bcl-XL or Mcl-1 with Bax and Bim as measured by GST pull-down assay. Purified GST, GST-Bcl-XL and GST-Mcl-1 fusion proteins immobilized on glutathione-Sepharose beads were incubated for 1 h with 0, 50 and 100 μM BH3-M6 or 100 μM TPC, followed by addition of cell extracts from HEK293T or A549 cells for 1 h. Proteins associated with beads were eluted and analyzed by Western blotting with Bax and Bim antibodies.
Whole cell lysates of HEK293T and A549 cells were prepared using NP-40 lysis buffer (see above). […]
The inventors next determined whether in lysates from HEK293T or A549 cells, BH3-M6 was able to disrupt the interaction between full-length Bax and Bim to full-length Bcl-XL and Mcl-1, respectively, in GST pull-down assays.

`CC(C)Cc1cc(-c2ccc(-c3ccc(CCC(=O)O)cc3CC(C)C)cc2Cc2ccccc2)ccc1OCC(=O)O`: the “cell viability as measured by MTT assay” value in the experiment with A549 cells is on record as “inhibited cell viability”. Also, the “disruption of the binding of Mcl-1 to Bax and Bim” value in experiment [1] is “disrupted”.
